Biological target: Type-1 angiotensin II receptor (Homo sapiens, UniProt P30556)

## CCCCc1nc(Cl)c(C(=O)O)n1Cc1ccc(-c2ccccc2-c2nn[nH]n2)cc1 [2-Butyl-5-chloro-3-[2'-(1H-tetrazol-5-yl)-biphenyl-4-ylmethyl]-3H-imidazole-4-carboxylic acid]
  Ki: 0.67 nM
